Our source for the inhibition values is PubChem BioAssay AID690 (Sanford-Burnham Center for Chemical Genomics, 2007).

Chains of the proteins cited; added tags and fusions are not shown.
UniProt P05187, whole entry: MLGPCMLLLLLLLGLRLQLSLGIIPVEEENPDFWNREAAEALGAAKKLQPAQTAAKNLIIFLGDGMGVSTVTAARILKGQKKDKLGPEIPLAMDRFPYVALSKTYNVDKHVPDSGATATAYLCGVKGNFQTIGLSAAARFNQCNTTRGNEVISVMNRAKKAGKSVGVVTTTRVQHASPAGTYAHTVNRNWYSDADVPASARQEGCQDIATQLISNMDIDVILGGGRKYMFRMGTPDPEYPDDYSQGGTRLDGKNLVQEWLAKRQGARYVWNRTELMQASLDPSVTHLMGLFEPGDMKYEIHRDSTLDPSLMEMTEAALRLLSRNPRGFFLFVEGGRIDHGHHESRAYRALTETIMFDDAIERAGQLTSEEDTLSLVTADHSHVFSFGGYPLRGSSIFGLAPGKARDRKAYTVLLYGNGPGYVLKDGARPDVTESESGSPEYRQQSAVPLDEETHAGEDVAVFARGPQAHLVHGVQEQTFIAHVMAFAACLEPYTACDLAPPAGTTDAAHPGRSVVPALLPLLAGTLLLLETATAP

One may read the inhibition as the change of the read-out against control, counted positive when it falls.

The entries are a selection whose mix differs from that of the whole data set. Results with a measured potency or affinity are listed apart. Some results for these compounds are left out of this collection, so the calls shown say nothing about other tests. Active and inactive are the calls of the source. No rule for the calls is given here.

This assay addresses Alkaline phosphatase, placental type (Homo sapiens) (UniProt P05187). Briefly: PLAP enzyme inhibitors, biochemical, luminescence, HTS (AID 690). The note with it: purified PLAP, luminescent substrate; at 20 µM; stronger effect = higher value.
On to `CN(C)c1cccc(C(=O)NCC2(N(C)C)CCCCC2)c1`, for which the inhibition was inactive: 12.6%.
The value for `O=C(OC1CN2CCC1CC2)C(CO)(c1ccccc1)c1ccccc1` (stereo not drawn) was inactive: -16.4%; that for `CC(C)N1C(=O)CC2(CCN(CCOC(=O)C(O)(c3ccccc3)c3ccccc3)CC2)C1=O` was inactive: -36.5%.
